Laboratory results reported in US8470871B2, “Ligands that modulate RAR receptors” (Galderma Research & Development, priority 2004, dated 2013).

The chains behind the UniProt entries cited, without tags or fusion partners. Residues count along the entry.
UniProt P13631, 185-419 limits assumed: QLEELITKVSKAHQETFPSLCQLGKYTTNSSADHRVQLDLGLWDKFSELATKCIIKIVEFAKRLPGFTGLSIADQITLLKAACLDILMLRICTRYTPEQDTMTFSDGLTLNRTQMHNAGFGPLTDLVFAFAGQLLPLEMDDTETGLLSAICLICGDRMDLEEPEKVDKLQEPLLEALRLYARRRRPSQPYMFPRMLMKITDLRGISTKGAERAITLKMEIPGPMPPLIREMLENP
UniProt P10276, 183-417 limits assumed: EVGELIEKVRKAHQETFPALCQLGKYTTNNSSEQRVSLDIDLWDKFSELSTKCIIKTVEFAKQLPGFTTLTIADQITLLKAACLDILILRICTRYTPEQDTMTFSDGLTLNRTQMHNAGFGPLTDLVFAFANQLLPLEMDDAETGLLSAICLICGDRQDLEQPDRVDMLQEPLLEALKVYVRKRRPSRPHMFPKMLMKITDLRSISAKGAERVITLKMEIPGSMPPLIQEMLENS

Tests used:
[1] = target: RARgamma (Homo sapiens, UniProt P13631); test: Transactivation test (Kdapp), RARgamma; format: cell-based; conditions: HeLa stable transfectants, luciferase reporter, crossed curves against reference agonist, Schild regression
Experimental: (§1) The activation of receptors with an agonist (activator) in HeLa cells leads to the expression of a reporter gene, luciferase, which, in the presence of a substrate, generates light. The activation of the receptors may thus be measured by quantifying the luminescence produced after incubating the cells in the presence of a reference agonist. The inhibitory products displace the agonist from its site, thus preventing activation of the receptor. The activity is measured by quantifying the reduction in light produced. This measurement makes it possible to determine the inhibitory activity of the compounds according to the invention.
(§2) In this study, a constant is determined which is the affinity of the molecule for the receptor. Since this value can fluctuate depending on the basal activity and the expression of the receptor, it is referred to as the Kd apparent (KdApp).
To determine this constant, “crossed curves” of the test product against a reference agonist, 4-[2-(5,5,8,8-tetramethyl-5,6,7,8-tetrahydro-2-naphthyl)propenyl]benzoic acid, are performed in 96-well plates. The test product is used at 10 concentrations and the reference agonist at 7 concentrations. In each well, the cells are in contact with a concentration of the test product and a concentration of the reference agonist, 4-[2-(5,5,8,8-tetramethyl-5,6,7,8-tetrahydro-2-naphthyl)propenyl]benzoic acid. Measurements are also taken for the total agonist (4-[2-(5,5,8,8-tetramethyl-5,6,7,8-tetrahydro-2-naphthyl)propenyl]benzoic acid) and inverse agonist, 4-{(E)-3-[4-(4-tert-butylphenyl)-5,5,8,8-tetramethyl-5,6,7,8-tetrahydro-2-naphthyl]-3-oxopropenyl}benzoic acid, controls.
The HeLa cell lines used are stable transfectants containing the plasmids ERE-βGlob-Luc-SV-Neo (reporter gene) and RAR (α, β, γ) ER-DBD-puro. These cells are inoculated into 96-well plates at a rate of 10,000 cells per well in 100 μl of DMEM medium without phenol red, and supplemented with 10% defatted calf serum. The plates are then incubated at 37° C. and 7% CO2 for 4 hours.
The plates are then incubated for 18 hours at 37° C. and 7% CO2.
(§3) The culture medium is removed by turning over and 100 μl of a 1:1 PBS/luciferine mixture is added to each well. After 5 minutes, the plates are read using the luminescence reader.

[2] = target: RARalpha (Homo sapiens, UniProt P10276); test: Transactivation test (Kdapp), RARalpha; format: cell-based; conditions: HeLa stable transfectants, luciferase reporter; crossed curves against reference agonist, Schild regression
Experimental: as §1, §2
To determine this constant, “crossed curves” of the test product against a reference agonist, 4-[2-(5,5,8,8-tetramethyl-5,6,7,8-tetrahydro-2-naphthyl)propenyl]benzoic acid, are performed in 96-well plates. The test product is used at 10 concentrations and the reference agonist at 7 concentrations. […]
as §3

Structure (SMILES) | Kd [1] [nM] | Kd [2] [nM] | Kd ([1]; hydrochloride) [nM]
CCN(C(C)=O)c1ccc(-c2cc(-c3ccc(C(=O)O)cc3)ccc2OCCCCO)cc1C(C)(C)C [Example 5, 4″-(acetylethylamino)-3″-tert-butyl-4′-(4-hydroxybutoxy)-[1,1′;3′,1″]terphenyl-4-carboxylic acid] | 0.5 |  | 
CCc1cc(-c2cc(-c3ccc(C(=O)O)cc3)ccc2OCCO)ccc1N(CC)CC [Example 13, 4″-diethylamino-3″-ethyl-4′-(2-hydroxyethoxy)-[1,1′;3′,1″]terphenyl-4-carboxylic acid] | 0.5 |  | 
CCN(CC)c1ccc(-c2cc(-c3ccc(C(=O)O)cc3)ccc2OCCCO)cc1C [Example 17, 4″-diethylamino-4′-(3-hydroxypropoxy)-3″-methyl[1,1′;3′,1″]terphenyl-4-carboxylic acid] | 30 |  | 
CCN(CC)c1ccc(-c2cc(-c3ccc(C(=O)O)cc3)ccc2CCCO)cc1C(C)(C)C [Example 33, 3″-tert-butyl-4″-diethylamino-4′-(3-hydroxypropyl)-[1,1′;3′,1″]terphenyl-4-carboxylic acid] | 0.5 |  | 

Continued, values first:

Kd [1] [nM] | Kd [2] [nM] | Kd ([1]; hydrochloride) [nM] | Structure (SMILES)
8 |  |  | CCN(CC)c1ccc(-c2cc(-c3ccc(C(=O)O)cc3)ccc2CC(O)CO)cc1C(C)(C)C (stereo not shown) [Example 35, 3″-tert-butyl-4″-diethylamino-4′-(2,3-dihydroxypropyl)-[1,1′;3′,1″]terphenyl-4-carboxylic acid]
30 |  |  | CCN(C(C)=O)c1ccc(-c2cc(-c3ccc(C(=O)O)cc3)ccc2CCCO)cc1C(C)(C)C [Example 37, 4″-(acetylethylamino)-3″-tert-butyl-4′-(3-hydroxypropyl)-[1,1′;3′,1″]terphenyl-4-carboxylic acid]
120 | 120 |  | CCN(C(C)=O)c1ccc(-c2cc(-c3ccc(C(=O)O)cc3)ccc2CCCNC2CC2)cc1C(C)(C)C [Example 47, 4″-(acetylethylamino)-3″-tert-butyl-4′(3-cyclopropylaminopropyl)[1,1′;3′,1″]terphenyl-4-carboxylic acid]
 |  | 0.25 | CCN(CC)c1ccc(-c2cc(-c3ccc(C(=O)O)cc3)ccc2CCCO)cc1C(C)(C)C [Example 52, [3″-tert-butyl-4-carboxy-4′-(3-hydroxypropyl)-[1,1′;3′,1″]terphenyl-4″-yl]diethylamine hydrochloride]
0.25 |  |  | CCNc1ccc(-c2cc(-c3ccc(C(=O)O)cc3)ccc2OCCCO)cc1C(C)(C)C [Example 54, 3″-tert-butyl-4″-ethylamino-4′-(3-hydroxypropoxy)-[1,1′;3′,1″]terphenyl-4-carboxylic acid]

Where a name gives a salt, the structure may show the parent alone.
